Laboratory results reported in US20180193330A1, “ALKYLATED TETRAHYDROISOQUINOLINES FOR BINDING TO CENTRAL NERVOUS SYSTEM RECEPTORS” (Florida A&M University, priority 2017, published 2018).

The chains behind the UniProt entries cited, without tags or fusion partners. Residues count along the entry.
UniProt P28223, whole entry: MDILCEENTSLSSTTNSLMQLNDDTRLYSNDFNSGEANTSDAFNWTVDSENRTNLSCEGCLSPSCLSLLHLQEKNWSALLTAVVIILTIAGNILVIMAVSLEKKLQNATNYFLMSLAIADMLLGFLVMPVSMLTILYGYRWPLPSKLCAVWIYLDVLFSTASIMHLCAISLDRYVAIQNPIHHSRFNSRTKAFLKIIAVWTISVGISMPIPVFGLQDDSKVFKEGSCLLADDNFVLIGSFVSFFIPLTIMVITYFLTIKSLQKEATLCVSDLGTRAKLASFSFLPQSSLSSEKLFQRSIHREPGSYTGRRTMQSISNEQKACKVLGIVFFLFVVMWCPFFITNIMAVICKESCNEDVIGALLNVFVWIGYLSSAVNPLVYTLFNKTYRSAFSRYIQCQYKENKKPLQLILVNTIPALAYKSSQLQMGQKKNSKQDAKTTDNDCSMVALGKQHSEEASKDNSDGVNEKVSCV
UniProt P14416, whole entry: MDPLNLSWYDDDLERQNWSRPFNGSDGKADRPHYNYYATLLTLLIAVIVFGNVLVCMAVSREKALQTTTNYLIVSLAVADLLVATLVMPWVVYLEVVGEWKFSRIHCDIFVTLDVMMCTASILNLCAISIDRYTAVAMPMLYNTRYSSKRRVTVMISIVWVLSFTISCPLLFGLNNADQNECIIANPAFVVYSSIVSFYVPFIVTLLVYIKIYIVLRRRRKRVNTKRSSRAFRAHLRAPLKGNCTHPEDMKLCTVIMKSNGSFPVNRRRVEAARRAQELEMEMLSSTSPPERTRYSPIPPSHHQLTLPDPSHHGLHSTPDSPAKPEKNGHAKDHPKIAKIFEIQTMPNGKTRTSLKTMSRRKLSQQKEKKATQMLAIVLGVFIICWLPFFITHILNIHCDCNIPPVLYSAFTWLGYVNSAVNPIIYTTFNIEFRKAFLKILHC
UniProt P08908, whole entry: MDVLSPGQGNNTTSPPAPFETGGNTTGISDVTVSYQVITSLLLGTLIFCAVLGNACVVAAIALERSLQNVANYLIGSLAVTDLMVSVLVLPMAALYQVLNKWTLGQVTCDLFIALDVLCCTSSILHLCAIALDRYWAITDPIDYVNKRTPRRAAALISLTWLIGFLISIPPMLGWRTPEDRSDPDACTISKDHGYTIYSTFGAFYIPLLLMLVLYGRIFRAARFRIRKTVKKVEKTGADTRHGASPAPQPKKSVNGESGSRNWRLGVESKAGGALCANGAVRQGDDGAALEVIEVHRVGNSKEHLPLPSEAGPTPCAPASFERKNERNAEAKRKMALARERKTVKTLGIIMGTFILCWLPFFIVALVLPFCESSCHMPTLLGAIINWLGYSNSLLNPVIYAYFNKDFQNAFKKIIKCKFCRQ
UniProt P35462, whole entry: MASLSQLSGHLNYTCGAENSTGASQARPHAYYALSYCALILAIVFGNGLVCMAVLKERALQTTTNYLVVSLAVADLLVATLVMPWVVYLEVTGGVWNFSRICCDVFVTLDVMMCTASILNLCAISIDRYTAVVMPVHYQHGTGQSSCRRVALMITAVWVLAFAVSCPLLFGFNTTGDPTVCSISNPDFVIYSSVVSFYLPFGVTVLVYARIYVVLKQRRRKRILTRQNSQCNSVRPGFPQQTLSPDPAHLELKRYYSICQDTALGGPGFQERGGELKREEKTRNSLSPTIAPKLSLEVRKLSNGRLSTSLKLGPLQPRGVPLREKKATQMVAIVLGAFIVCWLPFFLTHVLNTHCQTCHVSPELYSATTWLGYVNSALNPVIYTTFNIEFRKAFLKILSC
UniProt P34969, whole entry: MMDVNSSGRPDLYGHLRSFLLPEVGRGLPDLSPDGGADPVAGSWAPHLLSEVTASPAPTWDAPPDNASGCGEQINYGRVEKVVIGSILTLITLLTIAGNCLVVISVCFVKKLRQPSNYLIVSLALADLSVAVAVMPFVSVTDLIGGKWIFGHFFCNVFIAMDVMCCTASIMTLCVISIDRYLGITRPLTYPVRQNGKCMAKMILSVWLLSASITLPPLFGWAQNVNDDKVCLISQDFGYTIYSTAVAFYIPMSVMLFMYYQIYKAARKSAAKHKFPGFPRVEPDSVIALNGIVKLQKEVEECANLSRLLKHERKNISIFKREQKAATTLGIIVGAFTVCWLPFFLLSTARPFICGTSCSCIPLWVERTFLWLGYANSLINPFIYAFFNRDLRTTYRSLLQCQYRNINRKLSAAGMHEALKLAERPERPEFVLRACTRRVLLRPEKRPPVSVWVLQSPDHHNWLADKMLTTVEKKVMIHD
UniProt P28335, 33-458: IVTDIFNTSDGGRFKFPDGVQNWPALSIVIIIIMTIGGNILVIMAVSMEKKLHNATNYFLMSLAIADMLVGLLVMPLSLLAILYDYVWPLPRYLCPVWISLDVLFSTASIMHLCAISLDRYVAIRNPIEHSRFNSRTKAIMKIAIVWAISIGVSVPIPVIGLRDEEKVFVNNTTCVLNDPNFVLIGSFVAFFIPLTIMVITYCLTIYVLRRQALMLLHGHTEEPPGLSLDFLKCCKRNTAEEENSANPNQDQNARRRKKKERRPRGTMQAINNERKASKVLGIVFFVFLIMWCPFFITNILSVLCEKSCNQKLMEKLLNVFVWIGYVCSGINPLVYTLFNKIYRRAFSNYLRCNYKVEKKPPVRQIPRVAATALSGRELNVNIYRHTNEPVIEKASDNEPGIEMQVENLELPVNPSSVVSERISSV
UniProt P31645, whole entry, species assumed: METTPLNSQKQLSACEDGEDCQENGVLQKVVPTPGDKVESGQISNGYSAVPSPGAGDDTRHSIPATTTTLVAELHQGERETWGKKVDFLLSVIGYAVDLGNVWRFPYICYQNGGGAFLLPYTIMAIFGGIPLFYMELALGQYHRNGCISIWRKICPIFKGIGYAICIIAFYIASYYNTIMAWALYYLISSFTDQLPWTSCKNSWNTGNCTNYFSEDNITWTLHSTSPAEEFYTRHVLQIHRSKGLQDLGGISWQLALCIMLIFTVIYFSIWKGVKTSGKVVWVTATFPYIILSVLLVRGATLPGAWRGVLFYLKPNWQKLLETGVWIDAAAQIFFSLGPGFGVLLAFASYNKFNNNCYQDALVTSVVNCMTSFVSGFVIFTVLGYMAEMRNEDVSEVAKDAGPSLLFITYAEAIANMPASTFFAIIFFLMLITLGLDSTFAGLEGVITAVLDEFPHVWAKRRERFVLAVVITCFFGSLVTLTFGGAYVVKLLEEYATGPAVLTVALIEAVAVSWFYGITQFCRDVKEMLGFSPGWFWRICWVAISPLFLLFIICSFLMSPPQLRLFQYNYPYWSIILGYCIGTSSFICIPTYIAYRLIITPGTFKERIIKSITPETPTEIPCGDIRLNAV

Experiments:
5-HT2A receptor = 5-HT2A receptor (Homo sapiens, UniProt P28223); test: Receptor binding affinity at 5-HT2A (NIMH-PDSP radioligand binding)
D2 receptor = D2 receptor (Homo sapiens, UniProt P14416); test: Receptor binding affinity at dopamine D2 (NIMH-PDSP radioligand binding)
5-HT1A receptor = 5-HT1A receptor (Homo sapiens, UniProt P08908); test: Receptor binding affinity at 5-HT1A (NIMH-PDSP radioligand binding); conditions: Table 6, FIG. 23 compounds; for Ki: read-out: Ki 5-HT1A
D3 receptor = D3 receptor (Homo sapiens, UniProt P35462); test: Receptor binding affinity at dopamine D3 (NIMH-PDSP radioligand binding); conditions: for Ki: read-out: Ki D3
5-HT7 receptor = 5-HT7 receptor (Homo sapiens, UniProt P34969); test: Receptor binding affinity at 5-HT7 (NIMH-PDSP radioligand binding)
5-HT2C receptor = 5-HT2C receptor (Homo sapiens, UniProt P28335); test: Receptor binding affinity at 5-HT2C (NIMH-PDSP radioligand binding); conditions: Table 6, FIG. 23 compounds
SERT = SERT (Homo sapiens, UniProt P31645); test: Binding affinity at SERT

Substance	Ki (5-HT2A receptor)	pKi ± SEM 5-HT2A (5-HT2A receptor)	pKi ± SEM 5-HT1A (5-HT1A receptor)	Ki (5-HT1A receptor)	Ki (D3 receptor)	pKi ± SEM 5-HT7 (5-HT7 receptor)	further results
2-(2-(5-Fluoro-2,3-dihydro-1H-inden-2-yl)ethyl)-1,2,3,4-tetrahydroisoquinoline hydrochloride [Compound 5]	1330 nM	(5.88 ± 0.04)	(7.18 ± 0.04)	66 nM			Ki (D2 receptor): 885 nM; pKi ± SEM D2 (D2 receptor): (6.05 ± 0.05)
2-(3-(4-Fluorophenoxy)propyl)-1,2,3,4-tetrahydroisoquinoline hydrochloride [Compound 7]	525 nM	(6.28 ± 0.04)		146 nM	822 nM		
2-(4-(1H-Indol-3-yl)butyl)-1,2,3,4-tetrahydroisoquinoline [Compound 4]	1010 nM	(5.99 ± 0.09)	(7.48 ± 0.04)	33 nM		(8.4 ± 0.07)	Ki (5-HT7 receptor; read-out: Ki 5-HT7): 4 nM
2-(4-(3,4-Dihydroisoquinolin-2(1H)-yl)butyl)isoindoline-1,3-dione [Compound 1]					866 nM	(8.8 ± 0.06)	
2-(4-(4-Fluorophenyl)butyl)-1,2,3,4-tetrahydroisoquinoline hydrochloride [Compound 6]	962 nM				78 nM		Ki (5-HT2C receptor): 618 nM; pKi ± SEM 5-HT2C (5-HT2C receptor): (6.21 ± 0.06); pKi ± SEM D3 (D3 receptor): (7.1 ± 0.1)
2-(4-(Octahydroisoquinolin-2(1H)-yl)butyl)isoindoline-1,3-dione [Compound 2]	748 nM	(6.1 ± 0.1)	(7.73 ± 0.04)	19 nM			Ki (SERT): > 10000 nM; pKi ± SEM SERT (SERT): (>5.0)
